Data from patent publication US9676786B2, “Pharmacologically active compounds” (The University of Liverpool, priority 2013, dated 2017).

Assays:
neuropathic rats [1] = experiment: Mechanical hyperalgesia, paw withdrawal thresholds in neuropathic rats (partial sciatic nerve ligation); type: in vivo, rat; conditions: neuropathic Wistar rats, p.o.
Source text: (§1) The wound was closed with skin clips.
(§2) Control animals received vehicle alone.

neuropathic rats [2] = experiment: Cold sensitivity (10° C. cold plate), paw withdrawal latencies in neuropathic rats; type: in vivo, rat; conditions: 30 mg/kg p.o., neuropathic Wistar rats
Source text: as §1, §2

Question: How did the “Contralateral paw withdrawal thresholds to mechanical pressure” value (neuropathic rats [1]) turn out when CC(C)c1cc(C(=O)N2CCOCC2)cc(C(C)C)c1O [LT-01-25, (4-(hydroxy)-3,5-diisopropylphenyl)(morpholino)methanone] was run?
Answer: Its value is “significant increase”.

Question: What about the “Contralateral paw withdrawal latencies to cold” value (neuropathic rats [2]) of the same molecule?
Answer: Its value is “increased”.
